This note sets out measurements from patent publication US10577368B2 (The United States of America, as represented by the …, priority 2013, dated 2020).

Chains of the proteins cited; added tags and fusions are not shown.
UniProt Q60612, whole entry: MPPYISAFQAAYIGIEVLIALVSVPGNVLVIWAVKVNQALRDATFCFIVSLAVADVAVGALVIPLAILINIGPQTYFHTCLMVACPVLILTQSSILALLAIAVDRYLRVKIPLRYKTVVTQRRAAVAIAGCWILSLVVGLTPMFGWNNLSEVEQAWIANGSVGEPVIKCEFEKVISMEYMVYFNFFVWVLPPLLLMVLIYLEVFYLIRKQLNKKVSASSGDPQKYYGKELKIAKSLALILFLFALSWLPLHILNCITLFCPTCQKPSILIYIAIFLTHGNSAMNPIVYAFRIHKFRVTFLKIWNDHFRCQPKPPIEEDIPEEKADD
UniProt P0DMS8, whole entry: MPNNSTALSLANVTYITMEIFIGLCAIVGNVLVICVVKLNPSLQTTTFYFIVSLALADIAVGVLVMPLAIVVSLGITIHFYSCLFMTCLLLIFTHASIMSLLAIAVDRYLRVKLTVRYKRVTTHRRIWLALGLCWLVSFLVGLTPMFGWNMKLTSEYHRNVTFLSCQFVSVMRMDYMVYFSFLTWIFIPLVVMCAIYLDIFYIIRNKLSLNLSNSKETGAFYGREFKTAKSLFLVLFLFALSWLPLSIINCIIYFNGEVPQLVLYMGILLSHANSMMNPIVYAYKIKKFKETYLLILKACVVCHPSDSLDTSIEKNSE

For one data set, the target named is mA1AR (Mus musculus (Mouse), UniProt Q60612). The experiment in a line: Competition binding at mA1AR, HEK293 cell membranes. The note with it: read-out: A1AR % inhibition, mouse data (m).
The next data set can be described thus: Aqueous solubility. The following applies: aqueous medium, pH 7.4, aqueous buffer; read-out: Aq. Solubility (pH 7.4, μg/mL). Format: physicochemical.
Data set [1] in a line: % Unbound in plasma, human. The data set is classed as in vitro ADME.
A short description of another data set: % Unbound in plasma, rat. The data set is classed as in vitro ADME.
The nature of data set [2]: % Unbound in plasma, mouse. Format: in vitro ADME.
The test system of data set [3] is CYP1A2, CYP2C9, CYP2C19, CYP2D6, CYP3A4. The experiment in a line: Inhibition of 5 CYP isozymes. The note with it: human. The data set is classed as in vitro ADME. The source says:
In vitro stability parameters for selected compounds are set forth in Table 6, in accordance with an embodiment of the invention.

Another data set deals with hA3AR (Homo sapiens (Human), UniProt P0DMS8). In words: Radioligand binding at hA3AR, CHO cell membranes, [125I]I-AB-MECA.

With `CNC(=O)[C@@]12C[C@@H]1[C@@H](n1cnc3c(NC)nc(C#Cc4cnccn4)nc31)[C@H](O)[C@@H]2O` [Compound 7, (1S,2R,3S,4R,5S)-2,3-Dihydroxy-N-methyl-4-(6-(methylamino)-2-(pyrazin-2-ylethynyl)-9H-purin-9-yl)bicyclo[3.1.0]hexane-1-carboxamide], on mA1AR, the inhibition at 10 µM came out at 57%. For the same compound, the solubility in “Aqueous solubility” was > 208 µg/mL. For the same compound, the “% Unbound in plasma: Human” value in data set [1] is given as 61.2%. In the data set “% Unbound in plasma, rat”, the “% Unbound in plasma: Rat” value is recorded as 57.5%. The “% Unbound in plasma: Mouse” value in data set [2] worked out at 59.1%.

For the compound `CNC(=O)[C@@]12C[C@@H]1[C@@H](n1cnc3c(NC)nc(C#Cc4ccco4)nc31)[C@H](O)[C@@H]2O` [Compound 17, (1S,2R,3S,4R,5S)-4-(2-(Furan-2-ylethynyl)-6-(methylamino)-9H-purin-9-yl)-2,3-dihydroxy-N-methylbicyclo[3.1.0]hexane-1-carboxamide], in data set [3], the IC50 is > 10000 nM.

On hA3AR, `CNC(=O)[C@@]12C[C@@H]1[C@@H](n1cnc3c(NC)nc(C#Cc4cc[nH]n4)nc31)[C@H](O)[C@@H]2O` [Compound 9, (1S,2R,3S,4R,5S)-4-(2-((1H-Pyrazol-3-yl)ethynyl)-6-(methylamino)-9H-purin-9-yl)-2,3-dihydroxy-N-methylbicyclo[3.1.0]hexane-1-carboxamide] yielded a Ki of 2.23 ± 0.18 nM.
